Our source for the fluorescence change, negative = quenching values is PubChem BioAssay AID1479 (National Center for Advancing Translational Sciences (NCATS), 2009).

Structures are written as SMILES. The list shows a part of the results, in another mix than the full data. Some results for these compounds are left out of this collection, so the calls shown say nothing about other tests. Activity calls are given as the source filed them. The call rests on the fitted dose curve; in most records, active means well fitted curve in either direction with a large enough effect; inconclusive means small, poorly fitted or top-dose-only effect; inactive means flat fitted curve, though single readings scatter.
On the % scale 0 is the no-effect control and ±100 the full control effect.

This test in a line: Total Fluorescence Counterscreen for Inhibitors of the Interaction of Thyroid Hormone Receptor and Steroid Receptor Coregulator 2. The conditions noted are these: TRb/SRC2 Texas Red total fluorescence interference; at 106 µM (top of the series).
As to `CN(C)C1CCCC1OC(=O)C(O)(c1ccccc1)c1ccccc1` (centres undefined), the fluorescence change, negative = quenching was inactive: 0.11%.

Consider `Cc1ccccc1C(=O)NCC1(N2CCCCC2)CCCCC1`, for which the fluorescence change, negative = quenching was inactive: -0.863%.

On to `CN(C)C1(CNC(=O)c2ccccc2[N+](=O)[O-])CCCCC1`, for which the fluorescence change, negative = quenching was inactive: 3.56%.

Consider `CCN1CCCC(OC(=O)C2(O)c3ccccc3C=Cc3ccccc32)C1` (centres undefined), for which the fluorescence change, negative = quenching is inactive: 0.325%.

As to `CCOc1cccc(C(=O)NCC2(N(C)C)CCCCC2)c1`, the fluorescence change, negative = quenching is inactive: -1.85%.

As to `O=C(NCC1(N2CCCCC2)CCCCC1)c1cc([N+](=O)[O-])ccc1Cl`, the fluorescence change, negative = quenching was inactive: -3.26%.

With `CN(C)C1(CNC(=O)c2ccccc2F)CCCCC1`, the fluorescence change, negative = quenching was inactive: -0.258%.

In the case of `CN(C)C1(CNC(=O)c2cccc(Cl)c2)CCCCC1`, the fluorescence change, negative = quenching is inactive: -0.573%.

Take `CCN(CC)CC(C)C(C)OC(=O)C(O)(c1ccccc1)c1ccccc1` (centres undefined): the fluorescence change, negative = quenching is inactive: -0.938%.

`CC(C)COc1ccc(C(=O)NCC2(N(C)C)CCCCC2)cc1`: the fluorescence change, negative = quenching was inactive: -1.03%.

Regarding `O=C(OC1CN2CCC1CC2)C(CO)(c1ccccc1)c1ccccc1` (centres undefined), the fluorescence change, negative = quenching was inactive: 1.78%.

On to `COc1cccc(C(=O)NCC2(N3CCOCC3)CCCCC2)c1`, for which the fluorescence change, negative = quenching is inactive: -0.64%.

On to `CN(C)c1cccc(C(=O)NCC2(N(C)C)CCCCC2)c1`, for which the fluorescence change, negative = quenching is inactive: 0.586%.

Consider `CC(C)Oc1ccc(C(=O)NCC2(N(C)C)CCCCC2)cc1`, for which the fluorescence change, negative = quenching was inactive: -20.8%.

Regarding `COc1ccc(Br)c(C(=O)NCC2(N3CCCCC3)CCCCC2)c1`, the fluorescence change, negative = quenching was inactive: -5.82%.

Take `Cc1cccc(C(=O)NCC2(N(C)C)CCCCC2)c1`: the fluorescence change, negative = quenching was inactive: -14.2%.

As to `COc1cc(C(=O)NCC2(N(C)C)CCCCC2)cc(OC)c1OC`, the fluorescence change, negative = quenching was inactive: 1.51%.

Consider `COc1ccc(C(=O)NCC2(N(C)C)CCCCC2)cc1Cl`, for which the fluorescence change, negative = quenching is inactive: -33.8%.

For `COc1cccc(C(=O)NCC2(N3CCCCC3)CCCCC2)c1`, the fluorescence change, negative = quenching is inactive: -3.16%.
